## Apparent affinities of Ab-91 variants for a coronavirus HR2 peptide

Data: MIT Lincoln Laboratory AlphaSeq set, Engelhart et al. 2022, doi:10.1038/s41597-022-01779-4, as distributed in FLAb.

Binding partner: SARS-CoV-2 spike HR2 peptide, sequence PDVDLGDISGINAS.

Ab-91 is the parent antibody, in scFv form: VL, then three GGGGS repeats, then VH. The light chain is unchanged in all variants.
VL: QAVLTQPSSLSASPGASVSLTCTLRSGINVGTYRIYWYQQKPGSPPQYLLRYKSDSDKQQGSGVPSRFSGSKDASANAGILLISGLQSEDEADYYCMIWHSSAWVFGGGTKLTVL
VH: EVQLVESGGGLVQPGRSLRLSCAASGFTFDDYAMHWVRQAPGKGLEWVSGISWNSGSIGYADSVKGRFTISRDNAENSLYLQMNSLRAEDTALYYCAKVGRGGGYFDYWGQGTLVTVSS

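Phage display of a naive human antibody library on the peptide gave the parent. Library AAYL51 holds single substitutions and randomly drawn double and triple substitutions in the CDRs. AlphaSeq pools MATa yeast showing the antibodies with MATalpha yeast showing the peptide. The frequency of each diploid, read from paired DNA barcodes, reflects how well the two displayed proteins bind. Scores were corrected for input abundance and mapped to Kd with protein pairs of known affinity run in the same pool. There are three technical replicates.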

Changes read parent residue, position, new residue, counted from the first residue of the VH shown.
Numbers give log10(Kd / nM), so 0 is 1 nM and 3 is 1 µM. Smaller is tighter.
Where no diploid with the target was found in that replicate, the entry reads "n.d.": below detection, most likely a poor binder, though not proof of it.

| # | changes | log10 Kd (nM) by replicate | control signals |
|---|---|---|---|
| 1 | S63I+K65N+Y108S | n.d. / n.d. / n.d. | 0/9 |
| 2 | N54W+Y60M+V99A | n.d. / 4.35 / n.d. | 2/9 (5.02) |
| 3 | I51H+G59T | n.d. / n.d. / n.d. | 0/9 |
| 4 | Y32C+G50Q+R101Y | 5.38 / n.d. / n.d. | 3/9 (4.60) |
| 5 | G50I+Y105I | n.d. / n.d. / n.d. | 2/9 (4.90) |
| 6 | G26V+V99L+G102S | n.d. / 5.37 / 4.61 | 6/9 (4.80) |
| 7 | T28V+K65H+G104C | 0.83 / 0.80 / 0.18 | 3/9 (4.82) |
| 8 | Y60D+G102I+Y108L | 4.76 / n.d. / n.d. | 0/9 |
| 9 | A33Q+I58R+K65T | 5.04 / 5.03 / 4.97 | 4/9 (5.18) |
| 10 | G26M+S52H+S57K | n.d. / 5.26 / 3.88 | 3/9 (4.67) |
| 11 | G26Y+G59W+Y108V | n.d. / n.d. / n.d. | 1/9 (2.11) |
| 12 | D62I+Y105H | n.d. / n.d. / n.d. | 1/9 (2.90) |
| 13 | G50R+I51A+F106I | n.d. / n.d. / n.d. | 1/9 (4.27) |
| 14 | D30T+F106G+Y108F | 1.97 / 1.95 / 1.57 | 3/9 (4.34) |
| 15 | S52G+G102P+G103M | n.d. / 5.41 / n.d. | 3/9 (3.36) |
| 16 | G26I+G50T+G56C | n.d. / n.d. / n.d. | 1/9 (2.73) |
| 17 | D30S+Y60G+G103D | 2.98 / n.d. / n.d. | 0/9 |
| 18 | H35F+S57K+G104Y | n.d. / n.d. / n.d. | 0/9 |
| 19 | H35L+S52G+R101Y | n.d. / n.d. / n.d. | 2/9 (4.20) |
| 20 | D30F+I51F+G59N | 4.42 / 4.38 / 4.69 | 1/9 (3.31) |
| 21 | D31T+I58A+G102L | 1.06 / 1.20 / 0.45 | 0/9 |
| 22 | Y32W+M34R+A61G | n.d. / n.d. / n.d. | 2/9 (4.32) |
| 23 | D31V+N54T+G100I | n.d. / n.d. / n.d. | 0/9 |
| 24 | I51G+G56P+F106M | 4.64 / n.d. / n.d. | 2/9 (4.45) |
| 25 | D31F+S52T+S55H | 6.43 / 4.86 / n.d. | 3/9 (4.57) |
| 26 | S52A+W53A+G59K | n.d. / 3.83 / n.d. | 0/9 |
| 27 | V64L+K65Q+R101I | n.d. / n.d. / n.d. | 0/9 |
| 28 | G26W+H35N+G50A | n.d. / n.d. / n.d. | 0/9 |
| 29 | I58K+G59A+Y105Q | 4.62 / 6.53 / n.d. | 6/9 (4.41) |
| 30 | G26N+D62H+F106H | n.d. / n.d. / n.d. | 1/9 (3.75) |
| 31 | F27C+H35E+D62K | 3.84 / n.d. / n.d. | 1/9 (4.84) |
| 32 | D30C+S57M+G59V | n.d. / 3.87 / n.d. | 3/9 (4.58) |
| 33 | I58D+G59K | n.d. / n.d. / n.d. | 1/9 (4.36) |
| 34 | G26V+M34H+N54E | n.d. / n.d. / 5.39 | 2/9 (4.80) |
| 35 | V99M+G102I | 0.96 / 0.90 / 0.35 | 0/9 |
| 36 | S52K+G59L+V99T | n.d. / n.d. / n.d. | 0/9 |
| 37 | G26Y+D30L+V64L | n.d. / n.d. / n.d. | 2/9 (4.47) |
| 38 | M34Q+S52A+I58R | 4.92 / 4.53 / 4.83 | 5/9 (4.93) |
| 39 | W53N+A61C+D107A | 4.68 / 4.65 / n.d. | 5/9 (4.40) |
| 40 | I51V | n.d. / n.d. / n.d. | 2/9 (3.74) |
| 41 | F29D | n.d. / n.d. / 5.12 | 2/9 (4.69) |
| 42 | F27D+Y32P+Y60S | 5.26 / 4.36 / n.d. | 0/9 |
| 43 | H35K+S55R+S63K | n.d. / n.d. / n.d. | 0/9 |
| 44 | D30N+Y60I+D107I | 4.58 / 6.20 / 4.36 | 6/9 (4.99) |
| 45 | G26K+S55W+S63M | 5.17 / 4.92 / n.d. | 5/9 (4.87) |
| 46 | D31A+S52N+I58S | 1.30 / 1.35 / 1.03 | 2/9 (4.10) |
| 47 | S57H+V64A+Y105E | 5.11 / 4.43 / 4.14 | 8/9 (4.95) |
| 48 | F29S+S52W+D62F | 3.94 / n.d. / 4.77 | 6/9 (5.16) |
| 49 | G50E+N54W+G59W | 3.42 / n.d. / n.d. | 2/9 (4.40) |

Excerpt, the final 6 entries:

| changes | log10 Kd (nM) by replicate | control signals |
|---|---|---|
| D30N+Y60I+D107I | 4.58 / 6.20 / 4.36 | 6/9 (4.99) |
| G26K+S55W+S63M | 5.17 / 4.92 / n.d. | 5/9 (4.87) |
| D31A+S52N+I58S | 1.30 / 1.35 / 1.03 | 2/9 (4.10) |
| S57H+V64A+Y105E | 5.11 / 4.43 / 4.14 | 8/9 (4.95) |
| F29S+S52W+D62F | 3.94 / n.d. / 4.77 | 6/9 (5.16) |
| G50E+N54W+G59W | 3.42 / n.d. / n.d. | 2/9 (4.40) |

For reference, the parent read 1.86 as the reference entry and 0.88 as a member of this library.
As a blank, each scFv also met three strains without target: over library AAYL51, 21% of these pairings were detected, typically at 4.54 and seldom below 3.26. The control count says in how many pairings with the empty strains this scFv gave a signal, with their mean in brackets.